Experimental data reported in US5508437A, “Analogs of tyrosine sulfate or tyrosine phosphate containing peptides” (Hoffmann-La Roche Inc., priority 1993, dated 1996).

The chains behind the UniProt entries cited, without tags or fusion partners.
UniProt P30551, whole entry: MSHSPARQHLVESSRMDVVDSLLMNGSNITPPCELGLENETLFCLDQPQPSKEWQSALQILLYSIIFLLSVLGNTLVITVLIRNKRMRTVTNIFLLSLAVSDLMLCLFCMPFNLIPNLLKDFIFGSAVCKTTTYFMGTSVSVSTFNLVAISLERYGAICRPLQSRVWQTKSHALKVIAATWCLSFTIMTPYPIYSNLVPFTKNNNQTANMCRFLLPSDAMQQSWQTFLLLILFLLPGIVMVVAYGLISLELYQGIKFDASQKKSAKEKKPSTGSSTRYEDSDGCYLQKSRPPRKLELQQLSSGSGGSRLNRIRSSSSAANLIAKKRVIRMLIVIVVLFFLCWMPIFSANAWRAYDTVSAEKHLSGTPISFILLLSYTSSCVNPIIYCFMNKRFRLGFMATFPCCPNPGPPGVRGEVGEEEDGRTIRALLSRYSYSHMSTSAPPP

Target: T1, rat pancreas (3H-CCK-8-(SO3 H) receptor binding) (Rattus norvegicus, UniProt P30551)
T1 construct: pancreas approximately 0.100 mg protein in 1 mL final volume; from tissue; host or cells: rat pancreas membrane homogenate
Assay: In vitro receptor binding assay, 3H-CCK-8-(SO3H), rat pancreas homogenate
Conditions: 3H-CCK-8-(SO3H) 0.15 nM, 30 min at 25° C., read-out: Rate Pancreas IC50 (concentration to inhibit 50% of specific 3H-CCK-8-(SO3H) binding)
Description: Frozen bovine striatum (approx. 5 g) or fresh rat pancreas (approx. 5 g) cleaned of fat and extraneous tissue were homogenized in HEPES buffer #1 (10 mM HEPES+130 mM NaCl+5 mM MgCl2, pH 7.4) using 35 parts buffer per 1 part tissue on a wet weight/volume basis (approx. 175 mL). The tissue was homogenized 2×for approx. 15 sec. at 0° C. using a Polytron homogenizer at a setting of 6. The tissue was isolated by centrifugation at 48,000× g for 10 min at 0° C. The resulting tissue pellet was resuspended in HEPES buffer #2 (10 mM HEPES+130 mM NaCl+5 mM MgCl2 +1 mg/L phenylmethanasulfonyl fluoride (PMSF)+200 mg/L Bacitracin): 1 part striatal tissue (original wet weight) per 80 parts buffer and 1 part pancreas tissue (original wet weight) per 500 to 1000 parts buffer.
Incubation was initiated by combining various concentrations of native CCK-8 or peptides of the invention with ^3 H-CCK-8-(SO3 H) (final conc.=0.15 nM) and tissue homogenate (striatum approximately 0.26 mg protein in 2 mL final volume; pancreas approximately 0.100 mg protein in 1 mL final volume). […] The vials were shaken overnight and then counted using a liquid scintillation spectrometer. Non-specific binding was determined in the presence of 1 micromolar native CCK-8 and subtracted from all samples to determine specific binding. […]

IC50: 390 nM
Structure (SMILES): CSCC[C@H](NC(=O)[C@H](Cc1ccc(CCC(=O)O)cc1)NC(C)=O)C(=O)NCC(=O)N[C@@H](Cc1c[nH]c2ccccc12)C(=O)N[C@@H](CCSC)C(=O)N[C@@H](CC(=O)O)C(=O)N[C@@H](Cc1ccccc1)C(N)=O [Example 51, AC-Phe(4-CH2 CH2 COOH)-Met-Gly-Trp-Met-Asp-Phe-NH2]
